The target of the assay is Carbonic anhydrase (Stylophora pistillata, UniProt B5SU02). The experiment in a line: Inhibition of Stylophora pistillata carbonic anhydrase by stopped-flow CO2 hydration assay.

Chains of the proteins cited; added tags and fusions are not shown. Lines headed by an entry give the natural chain unless they say otherwise; changes in a name come on top.
UniProt B5SU02: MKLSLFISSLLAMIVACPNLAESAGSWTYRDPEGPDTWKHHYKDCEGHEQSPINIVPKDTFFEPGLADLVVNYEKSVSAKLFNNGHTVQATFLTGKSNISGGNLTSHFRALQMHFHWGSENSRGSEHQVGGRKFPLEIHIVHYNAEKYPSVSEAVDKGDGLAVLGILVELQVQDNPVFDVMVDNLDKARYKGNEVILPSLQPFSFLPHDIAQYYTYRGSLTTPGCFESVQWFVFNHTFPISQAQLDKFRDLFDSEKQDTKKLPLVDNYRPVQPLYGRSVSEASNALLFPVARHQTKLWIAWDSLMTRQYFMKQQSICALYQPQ

For `O=[As](O)(O)c1ccccc1`, the Ki was found to be 780 µM.

A word on the Ki: it is the dissociation constant of the complex between target and ligand, obtained from inhibition or displacement. High values mean lower affinity, low ones higher affinity.

Source of the values: BindingDB's records for 21208801.
